{"sequences": {"note": "The chains behind the UniProt entries cited, without tags or fusion partners. Residues count along the entry.", "UniProt Q8NBP7, 153-692 limits assumed": "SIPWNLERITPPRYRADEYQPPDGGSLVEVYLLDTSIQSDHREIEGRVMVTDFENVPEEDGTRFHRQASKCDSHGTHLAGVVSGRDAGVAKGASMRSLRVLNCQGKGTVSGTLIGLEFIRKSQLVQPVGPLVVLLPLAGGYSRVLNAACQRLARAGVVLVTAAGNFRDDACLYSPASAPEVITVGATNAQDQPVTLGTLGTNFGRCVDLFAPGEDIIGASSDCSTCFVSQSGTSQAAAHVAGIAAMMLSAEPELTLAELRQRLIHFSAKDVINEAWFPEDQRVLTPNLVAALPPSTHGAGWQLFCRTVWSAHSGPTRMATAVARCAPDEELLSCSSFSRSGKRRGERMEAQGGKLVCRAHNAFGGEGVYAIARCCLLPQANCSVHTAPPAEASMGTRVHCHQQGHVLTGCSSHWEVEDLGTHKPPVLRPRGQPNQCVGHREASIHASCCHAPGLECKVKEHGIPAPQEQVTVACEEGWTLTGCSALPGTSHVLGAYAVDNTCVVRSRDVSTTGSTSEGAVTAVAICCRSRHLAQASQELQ", "UniProt Q8NBP7, 31-152 partner limits assumed": "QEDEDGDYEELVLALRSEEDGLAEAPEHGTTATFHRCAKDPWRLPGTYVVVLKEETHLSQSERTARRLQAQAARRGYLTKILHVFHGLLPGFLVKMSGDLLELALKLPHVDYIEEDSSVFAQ"}, "source": "paper PMC8951016", "about": "“Computational Design and Biological Evaluation of Analogs of Lupin Peptide P5 Endowed with Dual PCSK9/HMG-CoAR Inhibiting Activity” (Pharmaceutics, 2022)", "origin": "cited, not measured here", "key": {"PCSK9-LDLR": {"target": "PCSK9-LDLR (Homo sapiens, UniProt Q8NBP7)", "settings": "read-out: IC50, PCSK9/LDLR interaction (Rim13); poly-imidazole; cited from earlier work"}, "LDL uptake, HepG2 cells": {"tested_on": "LDL uptake, HepG2 cells", "settings": "human hepatic HepG2; cited from earlier work"}, "[1]": {"tested_on": "LDLR on HepG2 cell surface", "settings": "human hepatic HepG2; cited from earlier work"}}}
{"smiles": "CNCCCCCn1cncc1-c1nc(-c2ncc(-c3ccc(OC)cc3)n2C)cn1Cc1ccccc1", "values": [{"measurement": "IC50", "setting": "PCSK9-LDLR", "result": 1.4, "unit": "µM"}, {"measurement": "extracellular LDL uptake by HepG2", "setting": "LDL uptake, HepG2 cells", "result": "capacity to increase the extracellular uptake of LDL"}, {"measurement": "LDLR expression on HepG2 surface", "setting": "[1]", "result": "ability to modulate the LDLR expression"}]}
